Format in all cases: cell-based
One test addresses BaF3_EGFRWT cells (Homo sapiens, UniProt P00533). The test is described as follows: Cell growth inhibition assay (CellTiterGlo), BaF3_EGFRWT. Background: Cellular ATP, detected with luciferase, serves as a proxy for viable cell number.
The target in another test is BaF3_HER2WT cells (Homo sapiens, UniProt P04626). The test is described as follows: Cell growth inhibition assay (CellTiterGlo), BaF3_HER2WT. The note with it: 3-day treatment, read-out: Cell growth inhibition activity, HER2 WT.
The target in a further test is BaF3_HER2YVMA cells (Homo sapiens, UniProt P04626, DUP772-775, cells depend on it). The test is described as follows: Cell growth inhibition assay (CellTiterGlo), BaF3_HER2YVMA. The note with it: 3-day treatment, read-out: Cell growth inhibition activity, HER2 - YVMA.
Setting [1] is: 3-day treatment, read-out: Cell growth inhibition activity, EGFR WT.

Where two headings read alike, the source gives them in different places. Bounds are passed on as bounds.

For `COC1CCN(C/C=C/C(=O)N2CCC(c3ccn4ncnc(Nc5ccc(Oc6ccc7c(c6)ncn7C)c(C)c5)c34)CC2)CC1` [Example 115, (E)-4-(4-methoxypiperidin-1-yl)-1-(4-(4-((3-methyl-4-((1-methyl-1H-benzo[d]imidazol-5-yl)oxy)phenyl)amino)pyrrolo[2,1-f][1,2,4]triazin-5-yl)piperidin-1-yl)but-2-en-1-one], the GI50 at BaF3_EGFRWT cells (setting [1]) was in the range of 1.5 to 5 µM.
Regarding `Cc1cc(Nc2ncnn3ccc(C4CCN(C(=O)/C=C/CN5CCOCC5)CC4)c23)ccc1Oc1ccc2c(c1)ncn2C` [Example 128, (E)-1-(4-(4-((3-methyl-4-((1-methyl-1H-benzo[d]imidazol-5-yl)oxy)phenyl)amino)-pyrrolo[2,1-f][1,2,4]triazin-5-yl)piperidin-1-yl)-4-morpholinobut-2-en-1-one], the GI50 is below 0.2 µM at BaF3_HER2WT cells, below 0.2 µM on BaF3_HER2YVMA cells and 1.5 to 5 µM on BaF3_EGFRWT cells (setting [1]).
Take `Cc1cc(Nc2ncnn3ccc(C4CCN(C(=O)/C=C/CN5CCC(O)C5)CC4)c23)ccc1Oc1ccc2c(c1)ncn2C` (stereo not shown) [Example 130, (E)-4-(3-hydroxypyrrolidin-1-yl)-1-(4-(4-((3-methyl-4-((1-methyl-1H-benzo[d]imidazol-5-yl)oxy)phenyl)amino)pyrrolo[2,1-f][1,2,4]-triazin-5-yl)piperidin-1-yl)but-2-en-1-one]: the GI50 on BaF3_EGFRWT cells (setting [1]) is 1.5 to 5 µM.
On the same count and under the same terms, with `Cc1cc(Nc2ncnn3ccc(C4CCN(C(=O)/C=C/CN5CCN(C)CC5)CC4)c23)ccc1Oc1ccc2c(c1)ncn2C` [Example 131, (E)-1-(4-(4-((3-methyl-4-((1-methyl-1H-benzo[d]imidazol-5-yl)oxy)phenyl)-amino)pyrrolo[2,1-f][1,2,4]triazin-5-yl)piperidin-1-yl)-4-(4-methylpiperazin-1-yl)but-2-en-1-one] the figure was 1.5 to 5 µM.
Take `COC1CN(C/C=C/C(=O)N2CCC(c3ccn4ncnc(Nc5ccc(Oc6ccc7c(c6)ncn7C)c(C)c5)c34)CC2)C1` [Example 132, (E)-4-(3-methoxyazetidin-1-yl)-1-(4-(4-((3-methyl-4-((1-methyl-1H-benzo[d]imidazol-5-yl)oxy)phenyl)amino)pyrrolo[2,1-f][1,2,4]triazin-5-yl)piperidin-1-yl)but-2-en-1-one]: the GI50 at BaF3_EGFRWT cells (read-out: Cell growth inhibition activity, EGFR WT, 3-day treatment) fell in the range of 1.5 to 5 µM.

For the origin of these results see patent publication US20240132521A1, “COMPOUNDS AND METHODS FOR MODULATING HER2” (Iambic Therapeutics, Inc., priority 2022, published 2024).
